Reported properties for industrial, environmental and drug-like chemicals

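The OPERA project collected these measurements from public sources as training and test data for property models. A listed value is a point estimate from one report or more. Method and conditions are not stated for these values. A value may pool stereoisomers or salt forms, and the file does not say which form was measured. Some entries may be limits or estimates that an upstream database listed as plain numbers.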

The melting point is given in degrees Celsius.
Boiling points are in °C, nominally at 760 mmHg.
logP is the log10 of the octanol-water partition coefficient; higher is more lipophilic.
Water solubility is log10 of mol/L, nominally at 25 °C; higher is more soluble.
Vapor pressures (log10 mmHg) refer to near room temperature, 15 to 30 °C; higher is more volatile.
The Henry's law constant is on a log10 scale in atm·m3/mol (set defined at 25 °C); higher favours air over water.
fu is the fraction unbound in human plasma, from 0 to 1.
Clint is human hepatic intrinsic clearance in µL/min per million cells; 0 means that no clearance was seen.
"n/a" marks a cell with nothing listed here.

* CCOP(=S)(Oc1cnc(C(C)(C)C)nc1)OC(C)C (stereo not drawn): BP 152 °C; logP 4.2; log H -5.545 (log10 atm·m3/mol); Clint 22.64 µL/min/10^6 cells
* CC1(C)COC(=O)[C@@H]1O: logP -0.352; vapor pressure -1.974 (log10 mmHg)
* CC(C)N(C(C)C)P(OCCC#N)N(C(C)C)C(C)C: melting point 12.7 °C; vapor pressure -3.356 (log10 mmHg)
* CO/C=C(/C(=O)OC)c1ccccc1COc1cc(C(F)(F)F)nc(OC(C)C)n1: water solubility -6.09 (log10 mol/L); vapor pressure -7.347 (log10 mmHg)
* O=c1oc2ccccc2c(O)c1C1CC(c2ccc(-c3ccc(Br)cc3)cc2)Cc2ccccc21 (stereo not drawn): water solubility -8.14 (log10 mol/L); vapor pressure -6.011 (log10 mmHg); log H -8.006 (log10 atm·m3/mol)
* C=CC(=O)N(C)C: logP -0.24; vapor pressure -0.312 (log10 mmHg)
* CCOP(=S)(OCC)SCSP(=S)(OCC)OCC: BP 150 °C; Clint 10.41 µL/min/10^6 cells
* CN1C[C@H](C(=O)O)C=C2c3cccc4[nH]cc(c34)C[C@H]21: logP -0.24; water solubility -3.002 (log10 mol/L); vapor pressure -9.639 (log10 mmHg)
* FC(F)=C(F)OC(F)(F)OC(F)(F)F: BP 19.5 °C; water solubility -4.797 (log10 mol/L)
* CCNc1nc(NCC)nc(SC)n1: water solubility -2.68 (log10 mol/L); vapor pressure -6.149 (log10 mmHg)
* COC(=O)[C@H]1CN(C)[C@@H]2Cc3c[nH]c4cccc(c34)[C@@]2(OC)C1: melting point 180.6 °C; water solubility -2.626 (log10 mol/L); vapor pressure -9.639 (log10 mmHg)
* CN1C(=O)C(C)(C2=CCCCC2)C(=O)N=C1O (stereo not drawn): plasma fu 0.5283; Clint 0 µL/min/10^6 cells
* CC(C)(C)C(=O)O[C@H]1CC[C@]2(C)[C@H]3CC[C@]4(C)C(=O)[C@H]5C[C@H]5[C@H]4[C@@H]3[C@@H](O)[C@H]3O[C@]32C1: logP 3.6; water solubility -3.656 (log10 mol/L)
* ClCCCCCCCl: logP 3.5; water solubility -3.848 (log10 mol/L); vapor pressure -1.072 (log10 mmHg)
* CCCCCCCCCCCCCCOC(=O)Cl: melting point 4 °C; vapor pressure -4.129 (log10 mmHg)
* CCCCCCCCCC(=O)OOC(=O)CCCCCCCCC: logP 6.05; water solubility -6.45 (log10 mol/L); vapor pressure -3.303 (log10 mmHg)
* COC(C)(C)CC(C)(C#N)N=NC(C)(C#N)CC(C)(C)OC (stereo not drawn): logP 2.3; water solubility -2.548 (log10 mol/L)
* C/C(=CC(=O)N(C)C)/OP(=O)(OC)OC: plasma fu 0.8429; Clint 1.89 µL/min/10^6 cells
* O=C(O)c1cc(Oc2ccc(C(F)(F)F)cc2Cl)ccc1[N+](=O)[O-]: vapor pressure -6.001 (log10 mmHg); plasma fu 0.0068; Clint 0 µL/min/10^6 cells

3 of these entries, quoted again:

| compound | melting point (°C) | BP (°C) | logP | water solubility (log10 mol/L) | vapor pressure (log10 mmHg) | log H (log10 atm·m3/mol) | plasma fu | Clint (µL/min/10^6 cells) |
|---|---|---|---|---|---|---|---|---|
| FC(F)=C(F)OC(F)(F)OC(F)(F)F | n/a | 19.5 | n/a | -4.797 | n/a | n/a | n/a | n/a |
| CCOP(=S)(OCC)SCSP(=S)(OCC)OCC | n/a | 150 | n/a | n/a | n/a | n/a | n/a | 10.41 |
| O=c1oc2ccccc2c(O)c1C1CC(c2ccc(-c3ccc(Br)cc3)cc2)Cc2ccccc21 (stereo not drawn) | n/a | n/a | n/a | -8.14 | -6.011 | -8.006 | n/a | n/a |

From the experimental data distributed with OPERA 2.9.